Target: Human DNA-PK (Homo sapiens, UniProt P78527)
Assay: DNA-dependent protein kinase (DNA-PK) inhibitory activity screening (Eurofins, HTRF)
Details: read-out: DNA-PK kinase inhibition IC50; ATP: 10 μM
Method: Experimental Embodiment 1: DNA-Dependent Protein Kinase (DNA-PK) Inhibitory Activity Screening Experiment
This experiment was tested in the Eurofins
Human DNA-PK; Mg/ATP; GST-cMyc-p53; EDTA; Ser15 antibody; ATP: 10 μM.
Experimental Method (Eurofins Pharma Discovery Service):
DNA-PK (h) was incubated in assay buffer containing 50 nM GST-cMyc-p53 and Mg/ATP (according to the required concentration). The reaction was initiated by adding Mg/ATP mixture. After 30 minutes of incubation at room temperature, the reaction was stopped by adding a stop solution containing EDTA. Finally, detection buffer (containing labeled anti-GST monoclonal antibody and europium-labeled anti-Ser15 antibody against phosphorylated p53) was added. The plate was then read in time-resolved fluorescence mode, and the homogeneous time-resolved fluorescence (HTRF) signal was determined according to the formula HTRF=10000×(Em665 nm/Em620 nm).

The chains behind the UniProt entries cited, without tags or fusion partners.
UniProt P78527, whole entry: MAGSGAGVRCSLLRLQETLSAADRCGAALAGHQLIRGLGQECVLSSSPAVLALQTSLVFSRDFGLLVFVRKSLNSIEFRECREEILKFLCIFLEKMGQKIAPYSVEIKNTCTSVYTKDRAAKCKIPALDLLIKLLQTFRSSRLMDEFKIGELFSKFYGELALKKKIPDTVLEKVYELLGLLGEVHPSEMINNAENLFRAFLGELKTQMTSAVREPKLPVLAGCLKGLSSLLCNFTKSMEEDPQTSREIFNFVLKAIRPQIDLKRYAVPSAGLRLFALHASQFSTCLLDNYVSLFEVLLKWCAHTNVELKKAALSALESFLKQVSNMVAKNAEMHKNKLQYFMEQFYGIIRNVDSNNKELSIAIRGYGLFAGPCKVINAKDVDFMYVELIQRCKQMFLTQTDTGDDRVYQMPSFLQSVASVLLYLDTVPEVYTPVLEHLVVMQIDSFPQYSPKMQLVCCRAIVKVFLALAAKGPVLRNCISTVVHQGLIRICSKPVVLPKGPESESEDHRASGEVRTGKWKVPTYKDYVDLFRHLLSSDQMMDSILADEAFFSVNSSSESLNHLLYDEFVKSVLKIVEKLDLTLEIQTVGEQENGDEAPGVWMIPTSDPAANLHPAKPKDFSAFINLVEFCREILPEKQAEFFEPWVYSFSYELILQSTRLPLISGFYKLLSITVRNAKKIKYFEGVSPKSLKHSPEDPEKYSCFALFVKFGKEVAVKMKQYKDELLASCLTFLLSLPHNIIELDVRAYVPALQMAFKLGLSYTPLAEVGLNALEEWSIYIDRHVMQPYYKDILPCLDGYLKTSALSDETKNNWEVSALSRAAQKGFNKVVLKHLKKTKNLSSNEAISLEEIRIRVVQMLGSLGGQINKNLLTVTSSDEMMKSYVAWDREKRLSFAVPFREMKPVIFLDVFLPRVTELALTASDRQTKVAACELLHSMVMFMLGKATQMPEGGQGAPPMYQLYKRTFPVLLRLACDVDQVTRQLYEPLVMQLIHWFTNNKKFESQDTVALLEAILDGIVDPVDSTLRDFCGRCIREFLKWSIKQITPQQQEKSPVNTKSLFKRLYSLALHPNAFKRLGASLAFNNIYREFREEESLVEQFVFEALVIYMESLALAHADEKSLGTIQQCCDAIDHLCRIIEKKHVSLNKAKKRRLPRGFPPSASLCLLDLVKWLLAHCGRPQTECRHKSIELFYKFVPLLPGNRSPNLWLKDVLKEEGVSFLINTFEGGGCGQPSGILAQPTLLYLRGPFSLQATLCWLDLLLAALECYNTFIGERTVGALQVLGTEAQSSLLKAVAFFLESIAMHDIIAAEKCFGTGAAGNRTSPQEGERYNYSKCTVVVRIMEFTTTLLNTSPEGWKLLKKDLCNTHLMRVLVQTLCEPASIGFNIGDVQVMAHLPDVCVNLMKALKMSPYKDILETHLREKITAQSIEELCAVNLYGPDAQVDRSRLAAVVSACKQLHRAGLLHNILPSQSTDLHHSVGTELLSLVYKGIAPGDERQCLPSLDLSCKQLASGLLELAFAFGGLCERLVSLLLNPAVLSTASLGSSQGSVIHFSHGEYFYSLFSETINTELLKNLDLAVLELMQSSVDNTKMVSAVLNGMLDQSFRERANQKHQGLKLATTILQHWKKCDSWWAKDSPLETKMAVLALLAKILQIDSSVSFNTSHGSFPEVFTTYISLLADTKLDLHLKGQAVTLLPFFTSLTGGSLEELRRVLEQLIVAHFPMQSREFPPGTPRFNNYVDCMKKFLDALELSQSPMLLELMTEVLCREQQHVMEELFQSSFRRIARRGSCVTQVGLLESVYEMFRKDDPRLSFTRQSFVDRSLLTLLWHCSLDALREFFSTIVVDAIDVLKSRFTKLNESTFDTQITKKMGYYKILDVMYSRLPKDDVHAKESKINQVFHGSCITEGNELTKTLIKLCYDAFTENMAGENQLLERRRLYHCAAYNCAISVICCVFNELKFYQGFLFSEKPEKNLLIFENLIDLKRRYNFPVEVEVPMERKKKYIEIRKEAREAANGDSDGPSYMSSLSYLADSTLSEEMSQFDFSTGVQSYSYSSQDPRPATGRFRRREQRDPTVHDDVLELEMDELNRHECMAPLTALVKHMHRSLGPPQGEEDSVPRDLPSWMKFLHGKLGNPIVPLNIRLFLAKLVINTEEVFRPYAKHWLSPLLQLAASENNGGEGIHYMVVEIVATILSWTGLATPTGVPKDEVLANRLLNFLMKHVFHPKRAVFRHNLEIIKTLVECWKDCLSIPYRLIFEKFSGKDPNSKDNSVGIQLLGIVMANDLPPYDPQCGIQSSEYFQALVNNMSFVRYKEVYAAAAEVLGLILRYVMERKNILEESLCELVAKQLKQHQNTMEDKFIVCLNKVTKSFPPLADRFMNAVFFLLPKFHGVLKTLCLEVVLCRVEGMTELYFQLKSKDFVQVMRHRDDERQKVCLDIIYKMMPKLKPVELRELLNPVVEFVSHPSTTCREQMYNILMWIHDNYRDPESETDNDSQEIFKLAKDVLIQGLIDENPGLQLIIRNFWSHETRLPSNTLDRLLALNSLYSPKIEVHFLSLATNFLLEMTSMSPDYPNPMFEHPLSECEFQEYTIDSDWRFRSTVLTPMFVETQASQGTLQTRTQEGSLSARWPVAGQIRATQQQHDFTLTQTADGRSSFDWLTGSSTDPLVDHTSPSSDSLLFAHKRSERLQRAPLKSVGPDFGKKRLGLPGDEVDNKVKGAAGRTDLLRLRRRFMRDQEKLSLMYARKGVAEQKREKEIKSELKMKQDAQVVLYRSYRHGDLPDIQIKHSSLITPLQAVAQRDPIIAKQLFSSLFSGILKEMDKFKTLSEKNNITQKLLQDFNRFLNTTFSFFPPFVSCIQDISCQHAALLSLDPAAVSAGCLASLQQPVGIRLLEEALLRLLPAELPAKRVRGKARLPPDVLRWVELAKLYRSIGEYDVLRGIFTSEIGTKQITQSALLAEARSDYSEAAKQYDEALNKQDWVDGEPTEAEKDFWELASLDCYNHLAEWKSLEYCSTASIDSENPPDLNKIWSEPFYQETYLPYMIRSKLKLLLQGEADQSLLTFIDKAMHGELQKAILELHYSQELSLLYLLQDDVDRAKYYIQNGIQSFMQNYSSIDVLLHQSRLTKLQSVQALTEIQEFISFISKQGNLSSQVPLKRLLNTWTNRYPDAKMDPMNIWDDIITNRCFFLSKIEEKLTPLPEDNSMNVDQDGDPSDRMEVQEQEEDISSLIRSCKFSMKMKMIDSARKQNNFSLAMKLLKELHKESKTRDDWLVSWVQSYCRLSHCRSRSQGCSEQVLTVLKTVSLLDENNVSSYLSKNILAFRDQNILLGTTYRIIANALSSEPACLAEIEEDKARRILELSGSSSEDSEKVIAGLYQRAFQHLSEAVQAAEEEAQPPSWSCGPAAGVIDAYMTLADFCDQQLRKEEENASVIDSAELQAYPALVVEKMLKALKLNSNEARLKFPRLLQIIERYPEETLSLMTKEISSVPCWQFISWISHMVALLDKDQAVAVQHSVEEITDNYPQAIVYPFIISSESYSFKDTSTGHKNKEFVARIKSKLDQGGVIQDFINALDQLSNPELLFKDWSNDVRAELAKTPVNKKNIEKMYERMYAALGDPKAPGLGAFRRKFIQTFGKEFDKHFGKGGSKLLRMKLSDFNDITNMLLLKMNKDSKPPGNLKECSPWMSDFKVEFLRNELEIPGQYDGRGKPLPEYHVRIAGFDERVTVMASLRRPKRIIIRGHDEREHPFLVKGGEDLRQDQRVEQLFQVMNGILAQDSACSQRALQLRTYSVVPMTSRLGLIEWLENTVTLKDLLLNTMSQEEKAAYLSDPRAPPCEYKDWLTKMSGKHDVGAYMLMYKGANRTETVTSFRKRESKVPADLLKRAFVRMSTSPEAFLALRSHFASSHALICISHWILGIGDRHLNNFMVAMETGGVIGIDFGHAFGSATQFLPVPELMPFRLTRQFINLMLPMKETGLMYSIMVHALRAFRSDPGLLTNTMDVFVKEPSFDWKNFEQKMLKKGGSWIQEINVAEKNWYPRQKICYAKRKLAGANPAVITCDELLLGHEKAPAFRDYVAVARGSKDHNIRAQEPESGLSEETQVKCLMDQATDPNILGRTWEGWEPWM
UniProt P12956, whole entry partner: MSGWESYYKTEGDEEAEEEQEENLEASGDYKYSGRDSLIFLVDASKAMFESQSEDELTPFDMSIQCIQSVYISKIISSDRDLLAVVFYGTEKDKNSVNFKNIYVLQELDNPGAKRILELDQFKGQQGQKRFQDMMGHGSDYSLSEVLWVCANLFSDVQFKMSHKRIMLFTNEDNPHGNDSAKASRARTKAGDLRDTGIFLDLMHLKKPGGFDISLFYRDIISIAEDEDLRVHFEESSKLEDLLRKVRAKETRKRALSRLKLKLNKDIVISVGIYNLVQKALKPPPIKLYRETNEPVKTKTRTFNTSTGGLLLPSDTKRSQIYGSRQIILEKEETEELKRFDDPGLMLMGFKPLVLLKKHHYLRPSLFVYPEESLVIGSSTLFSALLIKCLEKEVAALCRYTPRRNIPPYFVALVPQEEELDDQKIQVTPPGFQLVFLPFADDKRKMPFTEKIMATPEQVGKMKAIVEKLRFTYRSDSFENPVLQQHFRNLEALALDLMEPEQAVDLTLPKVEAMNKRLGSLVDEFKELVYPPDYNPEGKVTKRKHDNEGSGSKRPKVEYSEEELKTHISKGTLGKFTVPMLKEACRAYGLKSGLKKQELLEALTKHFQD
UniProt P13010, whole entry partner: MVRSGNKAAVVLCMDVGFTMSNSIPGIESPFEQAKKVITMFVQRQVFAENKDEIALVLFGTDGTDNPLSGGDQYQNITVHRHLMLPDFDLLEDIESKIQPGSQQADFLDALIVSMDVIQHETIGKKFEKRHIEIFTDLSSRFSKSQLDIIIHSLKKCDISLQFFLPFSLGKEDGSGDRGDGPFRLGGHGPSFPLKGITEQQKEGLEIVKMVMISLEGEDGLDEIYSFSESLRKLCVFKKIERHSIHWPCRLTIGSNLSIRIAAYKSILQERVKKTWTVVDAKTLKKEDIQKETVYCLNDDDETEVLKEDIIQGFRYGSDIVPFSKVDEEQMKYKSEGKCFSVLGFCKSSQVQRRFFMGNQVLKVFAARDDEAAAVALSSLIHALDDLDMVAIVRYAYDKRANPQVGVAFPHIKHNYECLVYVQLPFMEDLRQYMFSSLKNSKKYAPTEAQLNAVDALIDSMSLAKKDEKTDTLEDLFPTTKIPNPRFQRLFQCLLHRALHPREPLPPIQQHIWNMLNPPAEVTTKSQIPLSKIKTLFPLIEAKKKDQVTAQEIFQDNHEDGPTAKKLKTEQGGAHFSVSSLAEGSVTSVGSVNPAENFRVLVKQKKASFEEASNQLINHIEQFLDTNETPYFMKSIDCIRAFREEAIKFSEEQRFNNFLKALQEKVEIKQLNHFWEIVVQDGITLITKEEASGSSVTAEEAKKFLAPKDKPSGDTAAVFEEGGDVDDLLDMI

| Compound | IC50 [nM] |
| --- | --- |
| Cc1cc2ncnn2cc1Nc1ncc2c(n1)n(N1CC3CC1CO3)c(=O)n2C (single isomer, unassigned) [Compound 8] | 7 |
| Cc1cc2ncnn2cc1Nc1ncc2c(n1)n(N1CC3CC1CO3)c(=O)n2C (single isomer, unassigned) [Compound 9] | 3 |
